# Measured values from ChEMBL document CHEMBL1154777, “Univalent and bivalent ligands of butorphan: characteristics of the linking chain determine the affinity and potency of such opioid ligands” (J Med Chem, 2009).
# Organism: Homo sapiens
# Experiment: Selectivity ratio of Ki for human delta opioid receptor to Ki for human kappa opioid receptor
structure (smiles),measurement,value
O=C(O)CCCCCCCCC(=O)Oc1ccc2c(c1)[C@@]13CCCC[C@H]1[C@@H](C2)N(CC1CCC1)CC3,Ratio Ki,62
